The target of this assay is human recombinant Btk (Homo sapiens, UniProt Q06187). In words: Btk Enzymatic Activity Assay (Caliper-based kinase assay). It counts as biochemical.

Chains of the proteins cited; added tags and fusions are not shown. Lines headed by an entry give the natural chain unless they say otherwise; changes in a name come on top.
UniProt Q06187: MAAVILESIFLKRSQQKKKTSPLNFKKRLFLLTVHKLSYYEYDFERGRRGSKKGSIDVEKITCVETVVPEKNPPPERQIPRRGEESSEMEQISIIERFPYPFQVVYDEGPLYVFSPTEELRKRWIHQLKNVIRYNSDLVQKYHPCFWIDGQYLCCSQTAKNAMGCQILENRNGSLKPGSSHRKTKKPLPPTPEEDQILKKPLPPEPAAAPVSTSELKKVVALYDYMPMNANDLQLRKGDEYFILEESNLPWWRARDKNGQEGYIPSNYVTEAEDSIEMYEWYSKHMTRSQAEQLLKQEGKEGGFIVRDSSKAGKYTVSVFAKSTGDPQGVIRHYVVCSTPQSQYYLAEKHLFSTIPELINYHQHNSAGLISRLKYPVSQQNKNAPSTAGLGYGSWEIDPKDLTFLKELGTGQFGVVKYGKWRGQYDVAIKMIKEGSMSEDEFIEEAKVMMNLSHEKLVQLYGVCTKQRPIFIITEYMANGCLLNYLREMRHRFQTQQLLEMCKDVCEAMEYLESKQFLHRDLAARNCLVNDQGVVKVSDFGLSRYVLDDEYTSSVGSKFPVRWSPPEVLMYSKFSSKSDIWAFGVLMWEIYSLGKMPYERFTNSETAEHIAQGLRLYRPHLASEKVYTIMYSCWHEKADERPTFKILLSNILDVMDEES

Usually IC50 stands for the midpoint of a concentration-inhibition curve. Consider “(R)-2-(3-(4-amino-3-(4-(2,3-difluorophenoxy)phenyl)-1H-pyrazolo[3,4-d]pyrimidin-1-yl)piperidine-1-carbonyl)-3-cyclopropylacrylamide [Cpd 35A]”, for which the half-maximal inhibitory concentration (IC50) is 4.4 nM. On to “(R)-2-(3-(4-amino-3-(4-(2,6-difluorophenoxy)phenyl)-1H-pyrazolo[3,4-d]pyrimidin-1-yl)piperidine-1-carbonyl)-3-cyclopropylacrylamide [Cpd 36A]”, for which the IC50 worked out at 4.3 nM.

These data come from patent US20160045503A1, “FORMULATIONS CONTAINING REVERSIBLE COVALENT COMPOUNDS” (PRINCIPIA BIOPHARMA INC., priority 2012, published 2016).
